Assay results reported in ChEMBL document CHEMBL2203025, “6,7-Dihydroxy-1-oxoisoindoline-4-sulfonamide-containing HIV-1 integrase inhibitors” (Bioorg Med Chem Lett, 2012).

Test system: Human immunodeficiency virus
Test: Ratio of IC50 for HIV1 integrase strand transfer activity to EC50 for HIV1 expressing wild type integrase

CN1CCN(S(=O)(=O)c2cc(O)c(O)c3c2CN(Cc2ccc(F)c(Cl)c2)C3=O)CC1
Ratio IC50/EC50: 10
